PMC7072648, “N-(2-Hydroxyphenyl)-1-[3-(2-oxo-2,3-dihydro-1H- benzimidazol-1-yl)propyl]piperidine-4-Carboxamide (D2AAK4), a Multi-Target Ligand of Aminergic GPCRs, as a Potential Antipsychotic” (Biomolecules, 2020)
Like-named read-outs stand apart in the source and are kept apart here.

Chains of the proteins cited; added tags and fusions are not shown. Lines headed by an entry give the natural chain unless they say otherwise; changes in a name come on top.
UniProt P11229: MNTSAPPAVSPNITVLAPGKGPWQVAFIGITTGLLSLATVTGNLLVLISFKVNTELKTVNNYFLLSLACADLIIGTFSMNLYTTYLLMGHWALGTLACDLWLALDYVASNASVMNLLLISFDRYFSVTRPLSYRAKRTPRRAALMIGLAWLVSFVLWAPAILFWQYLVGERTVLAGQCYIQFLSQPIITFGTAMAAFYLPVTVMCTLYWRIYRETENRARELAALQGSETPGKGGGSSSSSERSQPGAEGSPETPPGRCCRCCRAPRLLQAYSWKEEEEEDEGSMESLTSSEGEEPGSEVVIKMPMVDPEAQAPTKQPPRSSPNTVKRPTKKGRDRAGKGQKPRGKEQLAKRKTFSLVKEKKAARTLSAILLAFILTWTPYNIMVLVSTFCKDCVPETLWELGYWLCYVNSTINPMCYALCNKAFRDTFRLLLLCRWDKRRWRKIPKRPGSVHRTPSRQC

Target: human M1 receptor (Homo sapiens, UniProt P11229)
Experiment: Radioligand binding assay at human M1 receptor
Settings: internal control

CC(C)[N+]1(C)[C@@H]2CC[C@H]1C[C@@H](OC(=O)C(CO)c1ccccc1)C2 (some centres unmarked) [ipratropium]
Ki (mean ± SEM, n = 3, read-out: pKi (M1) (converted)): 0.537 nM | Ki (read-out: average Ki (M1)): 0.53 nM
